Test results: EP4663242A1, “TARGETING THE ENERGY COUPLING FACTOR (ECF) TRANSPORTERS AS NOVEL ANTIMICROBIAL TARGET” (Helmholtz-Zentrum für Infektionsforschung GmbH, priority 2024, dated 2025)

Chains of the proteins cited; added tags and fusions are not shown.
UniProt Q035B4, whole entry: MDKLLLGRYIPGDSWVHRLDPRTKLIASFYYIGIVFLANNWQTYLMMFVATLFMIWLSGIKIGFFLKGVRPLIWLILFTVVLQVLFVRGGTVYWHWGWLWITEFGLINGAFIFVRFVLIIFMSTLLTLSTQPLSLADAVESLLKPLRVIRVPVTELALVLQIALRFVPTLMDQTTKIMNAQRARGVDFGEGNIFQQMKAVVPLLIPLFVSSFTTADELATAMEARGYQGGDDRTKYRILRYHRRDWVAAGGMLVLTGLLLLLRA
UniProt Q035B3, whole entry partner: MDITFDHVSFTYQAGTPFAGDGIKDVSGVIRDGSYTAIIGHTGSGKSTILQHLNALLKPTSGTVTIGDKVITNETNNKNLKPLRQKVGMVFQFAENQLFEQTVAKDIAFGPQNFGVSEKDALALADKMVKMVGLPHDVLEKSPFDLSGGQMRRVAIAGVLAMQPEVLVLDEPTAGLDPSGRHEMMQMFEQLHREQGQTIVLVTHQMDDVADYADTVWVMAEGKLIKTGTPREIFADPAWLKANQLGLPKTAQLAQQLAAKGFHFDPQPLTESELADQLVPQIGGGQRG
UniProt Q035X6, whole entry partner: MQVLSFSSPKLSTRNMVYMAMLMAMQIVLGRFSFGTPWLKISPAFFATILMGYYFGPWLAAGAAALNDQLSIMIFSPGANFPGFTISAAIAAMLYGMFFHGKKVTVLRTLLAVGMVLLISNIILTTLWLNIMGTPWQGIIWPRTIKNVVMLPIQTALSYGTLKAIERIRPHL
UniProt Q035B2, whole entry partner: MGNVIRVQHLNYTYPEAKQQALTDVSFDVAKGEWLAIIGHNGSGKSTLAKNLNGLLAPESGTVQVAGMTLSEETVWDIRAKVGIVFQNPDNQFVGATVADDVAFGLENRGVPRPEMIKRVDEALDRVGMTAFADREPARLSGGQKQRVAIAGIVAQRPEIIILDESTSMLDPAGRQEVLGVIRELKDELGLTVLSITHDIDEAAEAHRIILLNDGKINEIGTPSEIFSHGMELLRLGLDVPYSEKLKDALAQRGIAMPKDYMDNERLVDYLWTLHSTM

Biological target: ECF-T (Lacticaseibacillus paracasei, UniProt Q035B4)

With `O=C(O)c1cccc(-c2nc(-c3ccc(Cl)c(Cl)c3)c(-c3ccccc3)o2)c1` the IC50 was 5.1 µM and the “% inhibition at 50 µM” value (50 µM, Table 2, n ≥ 2, mean ± SD) was 94.8 ± 3.6%.
